The entries are a selection whose mix differs from that of the whole data set. Active and inactive are the calls of the source. Cut-off read from the data, not from the text of the source: active = inhibition above about 19%; inactive = the rest.

The experiment concerns T-cell receptor (TCR). Put plainly: inhibitors of human TCR-CD3 interaction, primary screen, biochemical, fluorescence, TAMRA-labeled TCR probe (AID 651800).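 Note: recombinant mutant TCR 2C K166C tagged with TAMRA read by polarization; 0% = receptor in buffer alone and 100% = receptor with positive control.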 The conditions noted are these: at 9.4 µM, hits give high values.
What is called inhibition is the relative decrease from the control value, in per cent. On to `O=C(O)C(=O)c1ccc(N(CCCl)CCCl)cc1`, for which the inhibition is inactive: -2.48%.

For the compound `O=C(Nc1ccncc1[N+](=O)[O-])c1ccc([N+](=O)[O-])cc1[N+](=O)[O-]`, the inhibition is inactive: -1.46%.

As to `O=C(COc1ccccc1)OC1CN2CCC1CC2` (stereo not drawn), the inhibition is inactive: 2.48%. With `COC(=O)C1(C)COP(=O)(N2CCCC2)OC1` (stereo not drawn) the figure was inactive: -0.68%; with `COP1(=S)c2c(C)nn(CCC#N)c2N=C(c2ccc(F)cc2)N1C` (stereo not drawn), inactive: 7.53%. The result for `CCC(C)N(CC(C)C)C(=S)SC(NC(C)=O)C(Cl)(Cl)Cl` (stereo not drawn) reads inactive: 4.31%; that for `O=C(OC1CN2CCC1CC2)c1cccc([N+](=O)[O-])c1` (stereo not drawn), inactive: -0.28%. The result for `CCOC(=O)c1ccc(NC(=O)C(C)(CCl)SC)cc1` (stereo not drawn) reads inactive: 2.14%. Regarding `COP(=O)(OC)N1CC1c1ccccc1` (stereo not drawn), the inhibition is inactive: 1.1%. The result for `Cc1cc(SC(NC(=O)c2ccccc2)C(Cl)(Cl)Cl)nc(C(C)C)n1` (stereo not drawn) reads inactive: 7.83%; that for `CCCCOc1ccc(C(=O)NCC2(N3CCCCC3)CCCCC2)cc1OC`, inactive: -3.02%.

Turning to `CCOC(=O)Nc1ccc([As](=O)(O)O)c(O)c1`, the inhibition is inactive: 0.91%.

For the compound `O=C(O)C(O)c1ccc(N(CCCl)CCCl)cc1` (stereo not drawn), the inhibition is inactive: 6.33%. Turning to `CC1CCNP(=O)(N(CCCl)CCCl)O1` (stereo not drawn), the inhibition was inactive: 1.1%.

Consider `O=P(Nc1ccccn1)(c1cccc2ccccc12)c1cccc2ccccc12`, for which the inhibition is inactive: -2.8%. On to `Cc1cc(SC(NC=O)C(Cl)(Cl)Cl)ncn1` (stereo not drawn), for which the inhibition was inactive: 2.08%. The result for `O=[N+]([O-])c1ccc(Nc2ccc(Oc3ccc([N+](=O)[O-])cc3[N+](=O)[O-])cc2)c([N+](=O)[O-])c1` reads inactive: 5.05%; that for `CCOC(=O)Nc1cccc([As](=O)(O)O)c1`, inactive: -3.07%.

Take `[N-]=[N+]=NC1CCCCC1NC(=O)c1cc([N+](=O)[O-])cc([N+](=O)[O-])c1` (stereo not drawn): the inhibition was inactive: -0.53%. `Cc1ccc(OP(=O)(Nc2ccc([N+](=O)[O-])cn2)Oc2ccc(C)cc2)cc1`: the inhibition was inactive: 1.95%. The result for `Cc1ccc2nc3c(c(C)c2c1)CC(C(Cl)Cl)S3` (stereo not drawn) reads inactive: -6.74%. In the case of `O=[N+]([O-])c1ccc(-c2cc([N+](=O)[O-])c(O)c([N+](=O)[O-])c2)cc1`, the inhibition is inactive: -4.08%.

Regarding `COc1cc(C(=O)NCC2(N3CCOCC3)CCCCC2)ccc1OCC(C)C`, the inhibition is inactive: -0.71%. For the compound `O=[As](O)(c1ccc(O)cc1)c1ccccc1O`, the inhibition was inactive: 5.36%.

On to `C[As](=O)(O)c1cccc(C(=O)O)c1`, for which the inhibition is inactive: 4.71%. Consider `CC(C)NC(=O)NP(=O)(Oc1ccccc1)Oc1ccccc1`, for which the inhibition was inactive: -4.17%. Consider `O=C(OC1CN2CCC1CC2)c1cccc2[nH]cnc12` (stereo not drawn), for which the inhibition is inactive: -12.4%. The result for `CCN(CC)C(=S)SC(NC=O)C(Cl)(Cl)Cl` (stereo not drawn) reads inactive: 4.65%. The result for `ClCCSc1nnc(-c2cccnc2)o1` reads inactive: -1.45%; that for `COC(=O)C1(C)COP(=O)(N2CCCCCC2)OC1` (stereo not drawn), inactive: 4.16%. With `CC(C)c1ccc(OP(=O)(Nc2ccccn2)Oc2ccccc2F)cc1` (stereo not drawn) the figure was inactive: -4.14%. With `O=P1(N(CCCl)CCCl)OCCCN1CCCl` (stereo not drawn), the inhibition was inactive: -1.78%. `O=P1(N(CCCl)CCCl)Nc2ccccc2N1`: the inhibition is inactive: -4.4%. Turning to `COc1cc(I)ccc1[As](=O)(O)O`, the inhibition is inactive: -3.18%. With `COc1ccc2nc(NP(=O)(c3ccccc3)c3ccccc3)sc2c1`, the inhibition is inactive: 2.8%.

Take `Cc1c2c(nc3ccccc13)SC(C(Cl)Cl)C2` (stereo not drawn): the inhibition is inactive: 8.99%. As to `Cc1cc(=O)[nH]c(N[N+](=O)[O-])n1`, the inhibition is inactive: 6.26%.

On to `O=C(OC1CN2CCC1CC2)C12CC3CC(CC(C3)C1)C2` (stereo not drawn), for which the inhibition was inactive: -2.64%.

For the compound `O=[N+]([O-])c1cc(Oc2ccc([N+](=O)[O-])cc2C(F)(F)F)cc([N+](=O)[O-])c1`, the inhibition is inactive: 5.73%. For `COc1ccc(N/C(=N/P(=O)(N2CCOCC2)N2CCOCC2)N2CCOCC2)cc1`, the inhibition was inactive: -4.64%. The result for `Cc1cccc(OCC(=O)OC2CN3CCC2CC3)c1` (stereo not drawn) reads inactive: -0.17%; that for `O=[As](O)(c1cccc(O)c1)c1cccc(O)c1`, inactive: 4.52%.

Turning to `O=C(OC1CN2CCC1CC2)c1ccc(Cl)cc1` (stereo not drawn), the inhibition is inactive: -8.21%. As to `CS(=O)(=O)c1ccc(Cl)c(NC(=O)COC(=O)C(O)(c2ccccc2)c2ccccc2)c1`, the inhibition was inactive: -5.8%.

Take `O=[As](O)(O)c1cccnc1`: the inhibition is inactive: 1.56%. With `COc1cc(C(=O)NCC2(N3CCOCC3)CCCCC2)cc(Cl)c1OC(C)C` the figure was inactive: -9.33%; with `CCOP(=O)(Nc1cccc2ccccc12)OCC`, inactive: 4.91%.

Take `COc1cc(C2NCCC3(OCCO3)C2(C)C)cc(OC)c1OC` (stereo not drawn): the inhibition is inactive: 6.61%. With `Nc1cccc2c([As](=O)(O)O)cccc12` the figure was active: 56.5%; with `Cc1ccc(NCCc2c([N+](=O)[O-])cc([N+](=O)[O-])cc2[N+](=O)[O-])cc1`, inactive: 9.93%; with `CCCOP(=S)(Nc1nc(N)cc(=O)[nH]1)OCCC`, inactive: 0.31%. With `Nc1ccccc1[As](=O)(O)c1ccccc1` the figure was inactive: 4.65%; with `O=C(O)COc1ccc([As](=O)(O)O)cc1[N+](=O)[O-]`, inactive: 0.74%; with `O=P(Nc1nccs1)(Oc1ccccc1)Oc1ccccc1`, inactive: -1.89%. With `CCOP1(=S)c2c(C)nn(CCC#N)c2N=C(c2ccccc2F)N1C` (stereo not drawn), the inhibition is inactive: 3.25%. The result for `CN(C(=O)Cc1ccccc1)[C@@H]1CC[C@]2(CCCO2)C[C@H]1N1CCCC1` reads inactive: -2.02%; that for `CCOP1(=S)c2c(C)nn(CCC#N)c2N=C(c2ccc(F)cc2)N1C` (stereo not drawn), inactive: -1.11%. With `N#CCCN(C(=O)COC(=O)C(O)(c1ccccc1)c1ccccc1)c1ccc(F)cc1` the figure was inactive: 4.26%; with `CN(C(=O)Cc1ccc(Cl)c(Cl)c1)[C@H]1CC[C@@]2(CCCO2)C[C@@H]1N1CCCC1`, inactive: 1.1%. With `O=[N+]([O-])c1ccc2c(c1)nnn2O` the figure was inactive: 1.06%. For `CN(C)C(=O)c1cc([N+](=O)[O-])cc2c1-c1c(cc([N+](=O)[O-])cc1[N+](=O)[O-])C2=O`, the inhibition was inactive: 4.93%.

With `NC(=O)Nc1ccc([As](=O)(O)O)cc1`, the inhibition was inactive: 4.63%. With `CN(C)C1(CNC(=O)c2ccc(S(C)(=O)=O)cc2)CCCCC1`, the inhibition was inactive: 1.85%.
